# Biological target: T1, SGLT1 protein (Mus musculus, UniProt Q9QXI6)
# T1 sequence (Q9QXI6 whole entry): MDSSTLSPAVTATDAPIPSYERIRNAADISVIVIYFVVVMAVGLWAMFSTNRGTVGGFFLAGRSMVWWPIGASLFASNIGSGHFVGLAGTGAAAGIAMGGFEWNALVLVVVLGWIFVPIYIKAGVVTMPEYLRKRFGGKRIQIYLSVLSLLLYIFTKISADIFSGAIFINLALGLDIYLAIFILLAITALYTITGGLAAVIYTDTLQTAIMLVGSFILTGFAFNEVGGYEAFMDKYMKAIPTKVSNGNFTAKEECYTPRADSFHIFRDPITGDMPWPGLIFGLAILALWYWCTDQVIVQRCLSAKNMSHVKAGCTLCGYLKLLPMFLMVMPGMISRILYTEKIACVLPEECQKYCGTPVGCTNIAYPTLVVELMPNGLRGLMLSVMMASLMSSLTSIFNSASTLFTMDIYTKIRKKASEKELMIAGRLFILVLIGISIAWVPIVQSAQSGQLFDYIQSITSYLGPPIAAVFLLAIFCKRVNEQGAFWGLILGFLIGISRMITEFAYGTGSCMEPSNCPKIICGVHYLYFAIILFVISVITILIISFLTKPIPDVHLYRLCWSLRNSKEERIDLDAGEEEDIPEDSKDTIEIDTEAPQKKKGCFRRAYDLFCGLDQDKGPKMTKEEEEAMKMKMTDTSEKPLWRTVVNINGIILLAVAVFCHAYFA
# Assay: Inhibition Assay
smiles,measurement,value
"CCOc1ccc(Cc2cc(C34OCC(CO)(O3)C(O)C(O)C4O)ccc2Cl)c(F)c1F (single isomer, unassigned) [US8609622, 3]",IC50,> 2000 nM
